Reference: PMC12281475, “Mediator Kinase Inhibitor Selectivity and Activity in Colorectal Cancer” (ACS Chemical Biology, 2025)

Chains of the proteins cited; added tags and fusions are not shown. Lines headed by an entry give the natural chain unless they say otherwise; changes in a name come on top.
UniProt Q9BWU1: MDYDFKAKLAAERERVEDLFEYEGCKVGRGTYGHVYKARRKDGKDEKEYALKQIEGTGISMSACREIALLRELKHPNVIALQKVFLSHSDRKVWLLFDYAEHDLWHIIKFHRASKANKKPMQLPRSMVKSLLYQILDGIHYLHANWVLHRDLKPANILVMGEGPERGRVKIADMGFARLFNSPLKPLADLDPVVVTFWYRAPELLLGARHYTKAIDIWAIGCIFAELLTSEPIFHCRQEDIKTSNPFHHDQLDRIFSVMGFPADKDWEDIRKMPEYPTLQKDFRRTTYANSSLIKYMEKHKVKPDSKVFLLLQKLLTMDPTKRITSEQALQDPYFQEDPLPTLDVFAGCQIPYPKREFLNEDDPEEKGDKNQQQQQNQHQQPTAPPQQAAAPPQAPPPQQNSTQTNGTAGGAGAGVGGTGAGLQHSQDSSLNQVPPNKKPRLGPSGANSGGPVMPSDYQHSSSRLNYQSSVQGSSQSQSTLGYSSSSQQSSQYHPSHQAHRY

Biological target: T1, CDK19_CycC (Homo sapiens, UniProt Q9BWU1)
T1 construct: purchased Reaction Biology
Assay: Radiometric protein kinase assay (33PanQinase), CDK19_CycC
Type: biochemical
Settings: highest assay concentration 1.00E-05 M

CN1CCN(C(=O)c2ccc3cc(CCNc4ncnc5ccc(C#N)cc45)ccc3c2)CC1 [Senexin B, reference compound]
IC50: 484 nM
